# Results from patent WO2012017069A1 (dated 2012).
# B1: scBsDB DD2x7B6 (bispecific antibody)
# chain: DAAQPAMADYKQVKLQQSGAELVKPGASVKLSCKASGYTFTTYYMYWVKQRPGQGLEWIGEISPINGATNFNEKFKSKATLTVDKSSSTAYMQLSSLTSEDSAVYYCTTLGEKGFAYWGQGTLVTVSAESQSFPNVGGGGSDIVLTQSPSSLAVSAGEKVTMSCRSSQSLLDSRTRKNYLAWYQQKPGQSPKLLIYWASTRESGVPDRFTGSGSGTDFTLTISNVQAEDLAVYYCKQSYNLPTFGGGTKLEIKRADAAPTVSGPGGGGSGGGGSGAGGSGGGGSGGGGSMADYKEVKLQESGGGLVQPGRPMKLSCVASGFTFSDFWMNWVRQSPEKGLEWVAQIRNKPNNYETYYSDSLKGRFTISRDDSKSSVYLQMNNLRPEDMGIYYCTLGNSWFAYWGQGTLVTVSGGGGSDIVLTQSPLSLPVSLGDQASISCRSSQSLVHSNGNTYLHWYLQKPGQSPKLLIYKVSNRFSGVPDRFSGSGSGTDFTLKISRVEAEDLGVYFCSQSTHVPFTFGSGTKLEIKRADAAPTVSAAARGGPEQKLISEEDLNSAVDHHHHHH
# Target: E7B6-TTp-E7B6-GFP-E7B6
# Experiment: complex formation by incubation; […]
binder,measurement,value
B1,binding result,binds
